Parent scFvs against a spike HR2 peptide, AlphaSeq assay 1

From the AlphaSeq antibody data of Engelhart et al. 2022 (doi:10.1038/s41597-022-01779-4), copy in the FLAb collection.

All antibodies were tested on one target, the spike HR2 peptide PDVDLGDISGINAS (SARS-CoV-2).

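The three antibodies came from panning a naive human phage display library on the peptide; each was carried in both assays of the study as a common reference. Ab-14 and Ab-95 are built VH, linker, VL, and Ab-91 VL, linker, VH. The scFvs were displayed on barcoded MATa yeast, the peptide on MATalpha yeast. The frequency of each diploid, read from paired DNA barcodes, reflects how well the two displayed proteins bind. Scores were corrected for input abundance and mapped to Kd with protein pairs of known affinity run in the same pool. There are three technical replicates.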

Values are log10 of the apparent Kd in nM; lower means stronger binding.
Where no diploid with the target was found in that replicate, the entry reads "nd": below detection, most likely a poor binder, though not proof of it.
Entries in the file, in the order shown: MIT_95_HL_scFV; AAYL49_29236, AAYL50_1, MIT_14_HL_scFV; MIT_91_LH_scFV. Names that start with MIT are the reference entries, the others are copies inside a library.
Some sequences occur more than once in the pool; their replicates are listed entry by entry, parted by semicolons.
Nonspecific signal, from three strains lacking the peptide, appeared in 17% of pairings of all scFvs of this assay, centred on 4.13 (5% of these signals below 2.91); values are not corrected for it.

antibody | scFv | log10 Kd (nM) by replicate
Ab-95 | EVQLVESGAEVKKPGASVKVSCKASGYTFTSYGISWVRQAPGQGLEWMGWISAYNGNTNYAQKLQGRVTMTTDTSTSTAYMELRSLRSDDTAVYYCARVGRGVIDHWGQGTLVTVSSGGGGSGGGGSGGGGSSSELTQDPAVSVALGQTVRITCEGDSLRYYYANWYQQKPGQAPILVIYGKNNRPSGIADRFSGSNSGDTSSLIITGAQAEDEADYYCSSRDSSGFQVFFGAGTKLTVL | 1.32 / 1.17 / 1.42
Ab-14 | EVQLVETGGGLVQPGGSLRLSCAASGFTLNSYGISWVRQAPGKGPEWVSVIYSDGRRTFYGDSVKGRFTISRDTSTNTVYLQMNSLRVEDTAVYYCAKGRAAGTFDSWGQGTLVTVSSGGGGSGGGGSGGGGSDVVMTQSPESLAVSLGERATISCKSSQSVLYESRNKNSVAWYQQKAGQPPKLLIYWASTRESGVPDRFSGSGSGTDFTLTISSLQAEDAAVYYCQQYHRLPLSFGGGTKVEIK | 4.11 / nd / nd; 1.69 / 1.66 / 1.70; 0.56 / 0.81 / 0.57
Ab-91 | QAVLTQPSSLSASPGASVSLTCTLRSGINVGTYRIYWYQQKPGSPPQYLLRYKSDSDKQQGSGVPSRFSGSKDASANAGILLISGLQSEDEADYYCMIWHSSAWVFGGGTKLTVLGGGGSGGGGSGGGGSEVQLVESGGGLVQPGRSLRLSCAASGFTFDDYAMHWVRQAPGKGLEWVSGISWNSGSIGYADSVKGRFTISRDNAENSLYLQMNSLRAEDTALYYCAKVGRGGGYFDYWGQGTLVTVSS | 1.18 / 1.24 / 1.26